The conditions of series [1]: female athymic nude mice.
The conditions of series [2]: male Cynomolgus monkeys, two cassette microdose levels.

Consider mithramycin SA-Trp [MTMSA-Trp], for which the “clearance at 0.3 mg/kg, fold higher than average at 1–10 mg/kg” value in series [1] is “approximately 1.7 fold”. In series [2], the “clearance lower, fold difference relative to MTM” value is given as 2.5~7 fold.
